Source: ChEMBL document CHEMBL5107935, “Modulating β-arrestin 2 recruitment at the δ- and μ-opioid receptors using peptidomimetic ligands” (RSC Med Chem, 2021)

Protein sequences, listed by entry. Tags and fused reporters are not part of them.
UniProt P35372, whole entry: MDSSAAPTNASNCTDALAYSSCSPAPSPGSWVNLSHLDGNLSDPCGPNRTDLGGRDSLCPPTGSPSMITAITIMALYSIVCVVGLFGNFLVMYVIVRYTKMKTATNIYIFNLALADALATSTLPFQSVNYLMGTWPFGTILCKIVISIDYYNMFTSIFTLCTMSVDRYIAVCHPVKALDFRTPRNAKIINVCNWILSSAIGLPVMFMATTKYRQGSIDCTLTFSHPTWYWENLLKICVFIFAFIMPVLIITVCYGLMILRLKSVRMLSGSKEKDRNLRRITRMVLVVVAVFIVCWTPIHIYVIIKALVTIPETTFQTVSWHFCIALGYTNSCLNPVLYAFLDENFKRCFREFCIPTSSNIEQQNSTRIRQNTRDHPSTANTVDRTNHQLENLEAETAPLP
UniProt P41143, whole entry: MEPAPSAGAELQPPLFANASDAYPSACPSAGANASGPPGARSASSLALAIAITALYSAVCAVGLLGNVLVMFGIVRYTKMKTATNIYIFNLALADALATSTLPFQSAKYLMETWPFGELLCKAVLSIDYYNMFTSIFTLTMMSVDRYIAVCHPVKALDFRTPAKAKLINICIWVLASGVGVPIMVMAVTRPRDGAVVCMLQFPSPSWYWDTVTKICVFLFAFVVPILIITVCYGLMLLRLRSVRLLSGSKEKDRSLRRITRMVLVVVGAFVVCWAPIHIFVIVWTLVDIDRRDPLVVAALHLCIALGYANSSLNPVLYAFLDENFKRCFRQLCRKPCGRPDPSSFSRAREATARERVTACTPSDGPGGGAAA

How the values were obtained:
Mu-type opioid receptor [1] = target: T1, Mu-type opioid receptor (Homo sapiens, UniProt P35372); test: Displacement of [3H]DAMGO from human mu opioid receptor expressed in CHO cell membrane incubated for 90 mins by liquid scintillation counting method; type: cell membranes
[2] = target: T2, Delta-type opioid receptor (Homo sapiens, UniProt P41143); test: Agonist activity at human delta opioid receptor expressed in CHO cells co-expressing beta-arrestin2 assessed as beta-arrestin2 recruitment measured after 90 mins by PathHunter assay; type: functional, cell-based
In short: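 PathHunter CHO cells expressing human δOR and β-arrestin 2 were plated at 2,500 cells/well one day before use. Drug was applied for 90 min at 37 °C/5% CO2, followed by PathHunter assay buffer for 60 min at room temperature. Luminescence was read. Points were run in duplicate, and pEC50 was obtained by nonlinear regression; values are means ± SEM.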

Mu-type opioid receptor [3] = target: T1, Mu-type opioid receptor; test: Agonist activity at human mu opioid receptor expressed in CHO cells co-expressing beta-arrestin2 assessed as beta-arrestin2 recruitment measured after 90 mins by PathHunter assay; type: functional, cell-based
[4] = target: T2, Delta-type opioid receptor; test: Displacement of [3H]DPDPE from human delta opioid receptor expressed in CHO cell membrane measured after 90 mins by liquid scintillation counting method; type: cell membranes
In short: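 Membranes (7 μg protein) were added and incubated 90 min at room temperature in 50 mM Tris HCl, 10 mM MgCl2, 1 mM EDTA, pH 7.4. Samples were filtered on GF-B, washed 4× with ice-cold 50 mM Tris HCl, and counted by scintillation. Points were run in duplicate.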

**Q.** Which Ki (Mu-type opioid receptor [1]) does the source give for `CC(C)C[C@H](NC(=O)[C@H](Cc1ccccc1)NC(=O)CNC(=O)C/C=C(\F)[C@@H](N)Cc1ccc(O)cc1)C(=O)O` here?
**A.** The Ki was 0.0427 µM.

**Q.** And the EC50 [2]?
**A.** The EC50 was 0.764 µM.

**Q.** And the EC50 (Mu-type opioid receptor [3])?
**A.** The EC50 was 32 µM.

**Q.** What about the Ki [4] of the same compound?
**A.** Its Ki is 0.0256 µM.
